We go through one compound from PubChem BioAssay AID504616 (Sanford-Burnham Center for Chemical Genomics, 2011).

A short description of this test: detection-step artefacts after finished caspase reaction – biochemical, fluorescence, Rh110, 20 µM, artefact control for Apaf-1 activator project, confirmation (AID 504616). The note with it: quenched caspase reaction, Ex480/Em540, at 20 µM.

The list shows a part of the results, in another mix than the full data. The source made the active and inactive calls.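 How the source made its calls: active means mean activity change at or below -40% when tested at 20 µM; inactive means the rest.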

As to `O=[As](O)(c1ccc(O)cc1)c1ccccc1O`, the fluorescence interference (activity change) is inactive: 7.63%.
